# In patent publication US6177438A, “Morphinan derivatives and pharmaceutical use thereof” (priority 1993, dated 2001):
# Sequences of proteins named here, by UniProt entry; tags and fusion partners are left off. A change or cut given only in a name is not applied to a line headed by its entry.
# UniProt P32300, whole entry, looked up: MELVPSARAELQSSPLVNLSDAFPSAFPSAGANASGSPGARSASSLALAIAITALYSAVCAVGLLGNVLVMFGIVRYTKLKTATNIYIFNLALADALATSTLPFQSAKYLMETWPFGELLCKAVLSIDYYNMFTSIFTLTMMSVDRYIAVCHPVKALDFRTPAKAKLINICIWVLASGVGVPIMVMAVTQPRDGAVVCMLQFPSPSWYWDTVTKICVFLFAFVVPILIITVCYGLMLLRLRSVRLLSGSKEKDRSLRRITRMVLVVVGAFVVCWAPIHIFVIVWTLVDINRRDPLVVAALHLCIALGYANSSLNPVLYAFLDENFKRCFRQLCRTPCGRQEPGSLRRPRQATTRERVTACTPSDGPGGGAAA
# Columns and labels:
# δ receptor = δ receptor (Mus musculus, UniProt P32300); conditions: mouse vas deferens, in words
# [1] = tested on: cultured nerve cells (cerebral cortex); conditions: 10 mM glutamic acid, 24 hours
compound,measurement,setting,value
CC(=O)N(C)[C@H]1CC[C@@]2(O)[C@H]3Cc4ccc(O)c5c4[C@@]2(CCN3CC2CC2)[C@H]1O5,receptor selectivity of agonist (δ),δ receptor,selective agonists for δ receptors
same,Protective action against cytotoxicity caused by glutamic acid (in words),[1],clearly demonstrated action that protects nerve cells from cytotoxicity caused by glutamic acid
same,EC50,"[1]; read-out: ED50 (protection against glutamic acid toxicity), 37° C., LDH leakage",7.6 µM
